Molecular target: 3-phosphoinositide-dependent protein kinase 1 (Homo sapiens) (UniProt O15530)
Test: Inhibition of human PDK1 assessed as residual activity at 25 uM relative to control

SMILES: COc1cc(OC)c(C=C2C(=O)Nc3ccccc32)c(OC)c1
- Activity: 89%

Reference: ChEMBL document CHEMBL2429821, “A Casein kinase 1/Checkpoint kinase 1 pyrazolo-pyridine protein kinase inhibitor as novel activator of the p53 pathway” (Bioorg Med Chem Lett, 2013)
